Measured values taken from US4618613A, “Preventive and healing composition for diseases due to lipoxygenase metabolic products” (Kyowa Hakko Kogyo Company, Ltd., priority 1983, dated 1986).

Molecular target: T1, 5-lipoxygenase (Rattus norvegicus, UniProt P12527)
T1 construct: leukemic basophilic granulocyte cells of rats (RBL-1, ATCC No. CRL 1378) were used as a 5-lipoxygenase enzyme source; host or cells: RBL-1 (rat basophilic leukemia cells)
T1 sequence (P12527 1-673): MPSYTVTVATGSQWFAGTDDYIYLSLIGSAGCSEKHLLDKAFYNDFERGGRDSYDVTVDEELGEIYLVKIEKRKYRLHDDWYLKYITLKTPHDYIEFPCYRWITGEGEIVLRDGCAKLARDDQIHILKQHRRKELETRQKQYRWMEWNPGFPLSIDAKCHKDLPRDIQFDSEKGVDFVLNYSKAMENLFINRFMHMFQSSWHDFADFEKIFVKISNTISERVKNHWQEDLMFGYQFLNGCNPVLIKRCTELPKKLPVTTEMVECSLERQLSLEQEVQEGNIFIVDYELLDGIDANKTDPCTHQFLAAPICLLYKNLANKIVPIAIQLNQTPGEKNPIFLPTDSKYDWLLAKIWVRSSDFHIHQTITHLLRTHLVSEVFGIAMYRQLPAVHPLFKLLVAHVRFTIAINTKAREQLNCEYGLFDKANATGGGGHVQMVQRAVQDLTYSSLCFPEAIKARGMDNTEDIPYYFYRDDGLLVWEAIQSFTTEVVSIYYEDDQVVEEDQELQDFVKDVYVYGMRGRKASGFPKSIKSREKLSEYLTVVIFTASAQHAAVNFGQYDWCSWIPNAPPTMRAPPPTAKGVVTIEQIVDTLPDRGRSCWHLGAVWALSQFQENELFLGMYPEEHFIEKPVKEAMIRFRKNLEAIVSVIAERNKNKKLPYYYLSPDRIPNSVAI
Test: inhibiting action upon leukocyte 5-lipoxygenase (RBL-1 cells as enzyme source)
Assay type: biochemical
Settings: 20 μM [14C]-arachidonic acid, 0.7 mM calcium chloride, 37° C., 5 min
Method: An inhibiting action of 2-n-heptyl-4-hydroxyquinoline-N-oxide upon lipoxygenase was determined by in vitro test according to the following procesure:
(b) Procedure for determining the inhibiting action upon leukocyte 5-lipoxygenase:
Determination was carried out according to modified B. A. Jakschik, et al, procedure (Biochem. Biophys. Res. Commun. 95, 103 (1980)). That is, leukemic basophilic granulocyte cells of rats (RBL-1, ATCC No. CRL 1378) were used as a 5-lipoxygenase enzyme source. The cells and 2-n-heptyl-4-hydroxyquinoline-N-oxide were brought into contact with each other in a 0.07 M tris hydrochloric acid buffer solution in the presence of 0.7 mM calcium chloride at 37° C. for 5 minutes, and then 20 μM of [^14 C]-arachidonic acid was added thereto. The mixture was incubated at 37° C. for 5 minutes. The reaction product was extracted with ethyl acetate/methanol/0.2M citric acid (30/4/1), and then separated by thin layer chromatography (developing solvent: petroleum ether/ethyl ether/acetic acid: 50/50/1). Spots of 5-hydroxy-[…]-eicosatetraenoic acid in the product were scraped off and ^14 C was measured by a liquid scintillation counter.
Inhibiting actions of compounds in Table 2 upon lipoxygenase were determined in the same manner as in Test Example 1.

pIC50: 5.40
SMILES: NC1=NN(c2cccc(C(F)(F)F)c2)CC1 [BW-755C, 3-amino-1-(3-trifluoromethylphenyl)-2-pyrazoline hydrochloride, reference compound]

pIC50: −log10 of the molar value. Counter-ions that a name gives are not always drawn.
